# Experiment: Particle size measurement before and after size reduction (Mastersizer, NiComp 370, Zetasizer)
# Assay type: physicochemical
# Details: epinephrine base first sample in water
# Procedure: Nanoparticles were fabricated from epinephrine base and epinephrine bitartrate (Bit) using high energy fluidization (microfluidization) techniques. These techniques involve the use of oversaturated solutions of various solvents, particularly water and isopropanol, at various temperatures and pressures ranging from about 8,000 psi to 30,000 psi and to about 8.3° to 43.3° C. under various passes. Particle size was measured before and after size reduction using a Mastersizer (Malvern) and/or a NiComp 370 Submicron Particle Sizer (NiComp) and nano-sized particles were confirmed using laser diffraction techniques. The particles were lyophilized (freeze-dried) using a bench top lyophilizer (ART Inc.).
smiles,measurement,value
"CNC[C@H](O)c1ccc(O)c(O)c1 [Epinephrine Base, epinephrine]","Size After Fabrication (110 F., 30 Kpsi) (nm)",273.9 nm

# — US10682316B2, “Methods for fabrication of epinephrine bitartrate nanoparticles and epinephrine bitartrate nanoparticles fabricated thereby” (NOVA SOUTHEASTERN UNIVERSITY, priority 2010, dated 2020)
